Experimental data taken from ChEMBL document CHEMBL5625232, “Development of selective class I protein arginine methyltransferase inhibitors through fragment-based drug design approach” (Eur J Med Chem, 2023).

Sequences of proteins named here, by UniProt entry; tags and fusion partners are left off. A change or cut given only in a name is not applied to a line headed by its entry.
UniProt O60678: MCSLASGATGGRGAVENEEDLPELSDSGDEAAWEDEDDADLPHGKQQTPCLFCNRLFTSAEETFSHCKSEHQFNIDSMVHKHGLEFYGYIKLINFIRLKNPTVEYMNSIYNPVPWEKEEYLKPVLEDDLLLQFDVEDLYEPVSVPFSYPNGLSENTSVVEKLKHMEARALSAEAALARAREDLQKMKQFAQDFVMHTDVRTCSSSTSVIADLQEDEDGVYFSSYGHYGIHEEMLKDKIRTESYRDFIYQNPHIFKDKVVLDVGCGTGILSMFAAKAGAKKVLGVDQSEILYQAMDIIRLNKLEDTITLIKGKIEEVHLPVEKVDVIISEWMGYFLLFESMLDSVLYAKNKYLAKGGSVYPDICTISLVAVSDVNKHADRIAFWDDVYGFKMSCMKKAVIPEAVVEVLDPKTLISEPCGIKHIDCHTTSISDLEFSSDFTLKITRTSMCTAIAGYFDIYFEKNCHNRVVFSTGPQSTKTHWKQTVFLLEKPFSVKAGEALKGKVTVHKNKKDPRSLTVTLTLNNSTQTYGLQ

Biological target: Protein arginine N-methyltransferase 3 (Homo sapiens, UniProt O60678)
Test: Displacement of 3H-SAM from human PRMT3 in presence of substrate by SPA assay

IC50: 201 µM
Compound: CC(C)Oc1ccc(-c2c[nH]cc2CN(C)CCN)cc1
